## scFv variants of Ab-14 (heavy chain) against a SARS-CoV-2 spike peptide

Target: peptide PDVDLGDISGINAS, taken from heptad repeat 2 (HR2) of SARS-CoV-2 spike.

Ab-14 is the parent antibody, in scFv form: VH, then the linker GGGGSGGGGSGGGGS, then VL. The light chain is unchanged in all variants.
VH: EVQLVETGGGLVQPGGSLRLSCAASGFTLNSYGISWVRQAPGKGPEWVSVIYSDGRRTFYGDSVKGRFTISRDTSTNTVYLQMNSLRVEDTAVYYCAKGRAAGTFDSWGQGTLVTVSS
VL: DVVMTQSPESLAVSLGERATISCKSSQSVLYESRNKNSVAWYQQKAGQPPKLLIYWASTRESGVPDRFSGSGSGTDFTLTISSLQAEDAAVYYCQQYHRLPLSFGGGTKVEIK

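The parent was found by panning a naive human phage display library on the peptide. These sequences belong to a second round, designed from the earlier measurements on random variants of the parent. Their group label is 14H_GP_Gen (GP: Gaussian process model; Gen: genetic algorithm; a sequence that several methods proposed may carry one label only). AlphaSeq pools MATa yeast showing the antibodies with MATalpha yeast showing the peptide. The frequency of each diploid, read from paired DNA barcodes, reflects how well the two displayed proteins bind. A regression on co-assayed BCL2-family reference pairs converts the normalised counts of each replicate to an apparent Kd. Mating was done six times.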

The parent's heavy chain CDRs are GFTLNSYGIS, VIYSDGRRTFYGDSVK, GRAAGTFDS; each variant's own CDRs replace them letter for letter.
Values are log10 of the apparent Kd in nM; lower means stronger binding.
Where no diploid with the target was found in that replicate, the entry reads "nd": below detection, most likely a poor binder, though not proof of it.
A sequence measured in both rounds can read differently, since the two assays cover different ranges.
Empty control strains, which show no peptide, gave a signal in 1% of pairings with all heavy chain designs; the median was 2.08 and 95% of these signals were weaker than 0.84. No background was subtracted. Also given: how often the same scFv was detected with the empty control strains.
The parent sequence was in this pool as ten entries: three were never detected, three once, and four in most replicates, with averages from 0.34 to 2.37.
The authors averaged sequences with at least three values out of six and counted those with two or fewer as poor binders.

The variant GFSLNEYGIS, VIYSDGRRTFYGDSVK, GRTAGTLDS gave -0.16, -0.29, -0.18, -0.46, 0.06, -0.17 (controls 0 of 18).
The variant GFELNSYGIS, VIYSDGRRTFYKDSVK, GWTAGTFDS gave nd, nd, 0.25, 0.10, 0.40, 0.89 (controls 1 of 18).
The variant GFTLESYGIS, VIYSDGRRTFYGDSVK, GEAAGTFDS gave nd, 1.73, 1.68, nd, 2.66, nd (controls 0 of 18).
The variant GFTLNEYGIS, VIYSDGKRTFYGDSVK, GRTAGTFDT gave -0.04, -0.05, -0.30, -0.24, -0.31, 0.09 (controls 0 of 18).
The variant KFDLNSYGIS, VIYSDGRRTFYQDSVK, GRTAGTFDS gave 1.23, 0.33, 1.07, 0.65, 0.30, 1.61 (controls 0 of 18).
The variant GFELNSYGIS, VIYSDGRRTFYVDDVK, GNAAGTFDS gave nd, nd, nd, nd, nd, nd (controls 0 of 18).
The variant SFDLNSYGIS, VIYSDGRRTFYADSVK, GQTAGTFDS gave nd, -0.79, 0.36, -0.40, -0.30, 0.54 (controls 0 of 18).
The variant GFTLNSYGIS, VIYSDGWRTFYIDSVK, GNAAGTFDS gave nd, 1.11, nd, nd, nd, nd (controls 0 of 18).
The variant GFELNSYGIS, VIYSDGRRTFYGDSVK, GKAAGTFDT gave 1.68, 3.18, 1.33, 1.17, 1.02, 0.82 (controls 0 of 18).
The variant GFELNSYGIS, VIYSDGRRTFYGDSVK, GMTAGTFDS gave 0.11, 0.45, 1.42, -0.15, -0.16, 0.78 (controls 0 of 18).
The variant GFTLNSYGIS, VIYSDGRRTFYIDSVK, GRTAGTFDT gave nd, nd, nd, nd, nd, nd (controls 0 of 18).
The variant GFELNSYGIS, VIYSDGRRTFYIDSVK, GKVAGTFDS gave 0.50, -0.12, -0.19, 0.88, 0.62, 1.03 (controls 0 of 18).
The variant GFELNEYGIS, VIYSDGRRTFYGDSVK, GRIAGTFDT gave -0.10, -0.10, -0.25, -0.15, -0.08, 0.20 (controls 0 of 18).
The variant GFNLNSYGIS, VIYSDGRRTFYIDSVK, GRNAGTFDS gave nd, 1.15, 2.09, 1.54, 1.12, 1.83 (controls 0 of 18).
The variant GFNLNMYGIS, VIYSDGRRTFYGDSVK, GRTAGTFDS gave 1.20, 0.84, 1.27, 0.74, 1.03, 1.06 (controls 1 of 18).
The variant GFDLNSYGIS, VIYSDGRRTFYGDSVK, GQAAGTFDC gave 0.33, 0.37, -0.15, 0.16, 0.89, -0.17 (controls 0 of 18).
The variant GFELNDYGIS, VIYSDGRRTFYHDSVK, GRTAGTFDS gave -0.46, 0.29, -0.77, -0.61, -0.75, -0.46 (controls 0 of 18).
The variant GFDLNSYGIS, VIYSDGRRTFYQDSVK, GQAAGTFDA gave 0.69, 0.71, 0.57, 0.63, 0.07, 0.72 (controls 0 of 18).
The variant GFYLNDYGIS, VIYSDGRRTFYGDSVK, GRTAGTFDT gave 1.78, 1.53, 2.01, 1.45, 1.68, 1.33 (controls 2 of 18).
The variant GFGLNEYGIS, VIYSDGRRTFYHDSVK, GQAAGTFDS gave 0.47, 0.39, 0.55, 0.60, 0.86, 0.85 (controls 0 of 18).
The variant GFDLNSYGIS, VIYSDGRRTFYGDSVK, GNKAGTFDS gave 1.11, 0.31, 2.04, 0.84, 1.21, 0.94 (controls 1 of 18).
The variant GFDLNSYGIS, VIYSDGRRTFYIDSVK, GMAAGTFDS gave 0.35, 0.18, 0.24, 0.61, 0.05, 0.67 (controls 0 of 18).
The variant GFDLNSYGIS, VIYSDGRRTFYGDSVK, GKAAGTFDN gave 1.55, 1.27, 1.62, 1.19, 1.05, 1.94 (controls 0 of 18).
The variant GFELNSYGIS, VIYSDGRRTFYGDRVK, GRTAGTFDS gave 1.80, 0.90, 1.01, 1.09, 0.85, 1.54 (controls 1 of 18).
The variant GFSLNEYGIS, VIYSDGRRTFYVDSVK, GNAAGTFDS gave 1.53, 1.13, 0.84, 1.36, 0.37, 1.39 (controls 1 of 18).
The variant GFSLNSYGIS, VIYSDGRRTFYGDSVK, GHAAGTFDT gave -0.50, -0.93, -0.58, 0.00, -0.84, 0.06 (controls 0 of 18).
The variant GFSLNSYGIS, VIYSDGRRTFYGDKVK, GEAAGTFDK gave 0.18, 0.05, 0.22, -0.01, 0.31, 0.23 (controls 2 of 18).
The variant GFHLNEYGIS, VIYSDGRRTFYGDSVK, GKTAGTFDS gave 0.13, 0.02, -0.10, -0.12, 0.01, -0.03 (controls 0 of 18).
The variant GFDLNSYGIS, VIYSDGRRTFYADMVK, GRTAGTFDS gave 0.96, 1.34, 0.78, 0.61, 0.69, 0.66 (controls 2 of 18).
The variant GFSLNSYGIS, VIYSDGRRTFYKDSVK, GQTAGTFDA gave -0.09, -0.12, 0.20, 0.52, 0.04, 0.27 (controls 0 of 18).
The variant GFNLNSYGIS, VIYSDGRRTFYGDDVK, GRNAGTFDS gave 1.67, 0.92, 0.72, 0.48, 1.63, 0.96 (controls 0 of 18).
The variant GFSLNSYGIS, VIYSDGRRTFYGDSVK, GKTAGTFDG gave 0.93, 1.46, 1.01, 1.05, 1.06, 0.98 (controls 0 of 18).
The variant GFYLNEYGIS, VIYSDGRRTFYGDSVK, GRTAGTFDT gave -0.05, -0.14, -0.69, 0.44, -0.15, -0.14 (controls 0 of 18).
The variant GFQLNSYGIS, VIYSDGRRTFYADSVK, GRTAGTFDT gave 1.11, 0.37, 0.32, 1.04, 0.48, 0.67 (controls 0 of 18).
The variant GFSLNSYGIS, VIYSDGRRTFYSDSVK, GQEAGTFDS gave 0.06, 0.11, -0.26, -0.02, 0.07, 0.18 (controls 0 of 18).
The variant GFDLNSYGIS, VIYSDGRRTFYVDSVK, GRCAGTFDS gave nd, nd, nd, nd, nd, 1.98 (controls 0 of 18).
The variant KFELNSYGIS, VIYSDGRRTFYADSVK, GRNAGTFDS gave -0.11, -0.12, -0.38, -0.39, -0.08, 0.57 (controls 0 of 18).
The variant GFSLNSYGIS, VIYSDGRRTFYGDNVK, GEAAGTFDK gave 0.30, 0.18, 0.14, 0.47, 0.08, 0.10 (controls 1 of 18).
The variant GFDLNSYGIS, VIYSDGRRTFYADSVK, GRVAGTFDK gave 0.42, 0.14, 0.18, -0.22, -0.02, 0.36 (controls 0 of 18).
The variant GFDLNSYGIS, VIYSDGRRTFYQDSVK, GRTAGTFDT gave 0.51, 0.45, 0.18, 0.54, 0.23, 0.82 (controls 0 of 18).
The variant GFDLNSYGIS, VIYSDGRRTFYIDSVK, GQAAGTFDV gave 0.36, 0.12, 0.13, 0.16, -0.01, 0.45 (controls 0 of 18).
The variant GFNLNSYGIS, VIYSDGRRTFYVDSVK, GRHAGTFDS gave nd, nd, nd, nd, nd, nd (controls 0 of 18).
The variant GFDLNSYGIS, VIYSDGRRTFYKDSVK, GRQAGTFDA gave 0.52, 0.23, 0.40, -0.17, 0.44, 1.08 (controls 0 of 18).
The variant GFSLNSYGIS, VIYSDGRRTFYGDSVK, GKNAGTFDT gave 0.45, 0.94, 0.59, 0.62, 0.46, 0.72 (controls 0 of 18).
The variant GFGLNEYGIS, VIYSDGRRTFYGDSVK, GKAAGTFDT gave 1.09, 0.56, 0.23, 0.03, 0.24, 0.80 (controls 0 of 18).
The variant GFDLNMYGIS, VIYSDGRRTFYGDSVK, GQTAGTFDS gave 0.39, 0.51, 0.29, 0.60, 0.23, 0.46 (controls 0 of 18).
The variant GFELNMYGIS, VIYSDGRRTFYGDSVK, GREAGTFDT gave nd, 0.25, 0.74, 0.40, 0.30, 1.26 (controls 0 of 18).
The variant GFNLNSYGIS, VIYSDGRRTFYGDDVK, GREAGTFDS gave 0.98, 0.18, 0.69, 0.40, 0.42, nd (controls 0 of 18).
The variant KFDLNSYGIS, VIYSDGRRTFYDDSVK, GRTAGTFDS gave 1.46, 0.06, nd, 1.66, 0.81, 1.35 (controls 0 of 18).
The variant GFELNEYGIS, VIYSDGRRTFYIDSVK, GNAAGTFDS gave -0.09, -0.05, -0.02, -0.09, 0.37, -0.05 (controls 0 of 18).

The last 6 entries again:

{"CDR-H1": "GFGLNEYGIS", "CDR-H2": "VIYSDGRRTFYGDSVK", "CDR-H3": "GKAAGTFDT", "log10 Kd (nM) by replicate": "1.09, 0.56, 0.23, 0.03, 0.24, 0.80", "signal with controls": "0 of 18"}
{"CDR-H1": "GFDLNMYGIS", "CDR-H2": "VIYSDGRRTFYGDSVK", "CDR-H3": "GQTAGTFDS", "log10 Kd (nM) by replicate": "0.39, 0.51, 0.29, 0.60, 0.23, 0.46", "signal with controls": "0 of 18"}
{"CDR-H1": "GFELNMYGIS", "CDR-H2": "VIYSDGRRTFYGDSVK", "CDR-H3": "GREAGTFDT", "log10 Kd (nM) by replicate": "nd, 0.25, 0.74, 0.40, 0.30, 1.26", "signal with controls": "0 of 18"}
{"CDR-H1": "GFNLNSYGIS", "CDR-H2": "VIYSDGRRTFYGDDVK", "CDR-H3": "GREAGTFDS", "log10 Kd (nM) by replicate": "0.98, 0.18, 0.69, 0.40, 0.42, nd", "signal with controls": "0 of 18"}
{"CDR-H1": "KFDLNSYGIS", "CDR-H2": "VIYSDGRRTFYDDSVK", "CDR-H3": "GRTAGTFDS", "log10 Kd (nM) by replicate": "1.46, 0.06, nd, 1.66, 0.81, 1.35", "signal with controls": "0 of 18"}
{"CDR-H1": "GFELNEYGIS", "CDR-H2": "VIYSDGRRTFYIDSVK", "CDR-H3": "GNAAGTFDS", "log10 Kd (nM) by replicate": "-0.09, -0.05, -0.02, -0.09, 0.37, -0.05", "signal with controls": "0 of 18"}

Data: MIT Lincoln Laboratory AlphaSeq set, Li et al. 2023, doi:10.1038/s41467-023-39022-2, as distributed in FLAb.